{
  "source": "paper PMC7211195",
  "about": "“The influence of the coadministration of the p-glycoprotein modulator elacridar on the pharmacokinetics of lapatinib and its distribution in the brain and cerebrospinal fluid” (Investigational New Drugs, 2019)",
  "assay": "Lapatinib pharmacokinetics in rat blood plasma (BP), HPLC-MS/MS, noncompartmental analysis",
  "assay_type": "in vivo, rats",
  "conditions": "for Clapatinib in BP, single rat: listed as Lapatinib",
  "method": "This study was conducted on rats, which are a promising model to predict P-gp-based drug-drug interactions at the human BBB [15]. The animals were allowed to acclimate for one week before the beginning of the experiments. Adult male Wistar-strain rats (weight 470–525 g) were used in the study. The animals were maintained under standard breeding conditions with a 12/12 h light-dark cycle (lights on at 6.00 a.m., lights off at 6.00 p.m.) at constant room temperature (23 ± 2 °C), relative humidity (55 ± 10%) and ad libitum access to food and water. The experimental protocol for this study was reviewed and approved by the Local Ethics Committee. To obtain consistent data, the study was based on the required minimum number of animals and observation time. […] Three rats were used at each time point (n = 3). In total, the research was conducted on 66 animals (n = 33 in the experimental group and n = 33 in the control group).\nElacridar was freshly dissolved in a vehicle at an initial concentration of 20 mg/mL. […] A volume of 80 μL of blood was collected from each rat by cutting off a piece of its tail. The blood samples were collected into heparinized test tubes at the following time points: […], and they were immediately centrifuged at 2880 g for 10 min at 4 °C. The anaesthetized rats (anaesthetized by intramuscular administration of 50 mg/kg ketamine and 10 mg/kg xylazine) were prepared for cisterna magna puncture. The hair over the puncture was removed and the skin was disinfected with alcohol. The animals were placed in a recumbent position with an elevated rear part of the body. The animals’ heads were slightly flexed and immobilized with the operator’s left hand. The space between the occiput rostrally and the atlas (C1) of the spinal column caudally was gently palpated with the left thumb. A 0.7 × 20 G needle with polyethylene tubing (Terumo Poland, Warsaw, Poland) was gently inserted at an approximate angle of 80–90° through the skin with the operator’s right hand into the midsagittal region. The moment that dura mater perforation was perceptible, a small amount of CSF was found in the needle tubing. To sample additional CSF, a 1 mL insulin syringe (Becton Dickinson, Warsaw, Poland) was used to collect 80–120 μL of CSF by very gentle aspiration. Only clear CSF was collected for further analysis. […] The animals’ brains were immediately dissected, washed in 0.9% NaCl and divided along the longitudinal axis. One of the brain hemispheres was again rinsed three times with 5 mL of 0.9% NaCl, weighed and homogenized with 0.9% NaCl (4 mL per 1 g of BT) in an Ultra-Turrax homogenizer (Witko, Łódź, Poland). The homogenate was then centrifuged at 4500 g for 10 min. All samples of the rat BP, CSF, and BT homogenate supernatant were stored at −80 °C until analysis.\nThe chromatographic analysis was conducted using a 1260 Infinity system (Agilent Technologies, Santa Clara, USA) equipped with a Kinetex® C18 column (50 × 4.6 mm, 2.6 μm, Phenomenex, Torrance, USA), which was maintained at 35 °C.",
  "key": {"[1]": {"conditions": "blood plasma, lapatinib 100 mg/kg oral + 5 mg/kg elacridar (IE+L)"}},
  "note": "Several values for one entry are separate records, joined by “and”; a condition that tells them apart may be missing. Equal entries are not always repeated.",
  "data": [
    {"smiles": "CS(=O)(=O)CCNCc1ccc(-c2ccc3ncnc(Nc4ccc(OCc5cccc(F)c5)c(Cl)c4)c3c2)o1", "note": "[lapatinib, N-{3-Chloro-4-[(3-fluorobenzyl)oxy]phenyl}-6-[5-({[2-(methylsulfonyl)ethyl]amino}methyl)-2-furyl]-4-quinazolinamine]", "values": [
      {"measurement": "AUMC0-t", "setting": "[1]", "result": "480,290.03 ± 21,589.07 ng × h^2/mL"},
      {"measurement": "AUMC0-∞", "setting": "[1]", "result": "3,917,566.05 ± 1,363,043.99 ng × h^2/mL"},
      {"measurement": "t0.5", "setting": "blood plasma, lapatinib 100 mg/kg oral alone (IIL)", "result": "5.58 ± 1.28", "unit": "h"},
      {"measurement": "Clapatinib in BP, single rat", "setting": "lapatinib 100 mg/kg + elacridar, 0.25 h", "result": 860, "unit": "ng/mL"},
      {"measurement": "Clapatinib in BP, single rat", "setting": "lapatinib 100 mg/kg + elacridar, 0.5 h", "result": 1355, "unit": "ng/mL"},
      {"measurement": "Clapatinib in BP, single rat", "setting": "lapatinib 100 mg/kg + elacridar, 1 h", "result": 1900, "unit": "ng/mL"},
      {"measurement": "Clapatinib in BP, single rat", "setting": "lapatinib 100 mg/kg + elacridar, 2 h", "result": 4045, "unit": "ng/mL"},
      {"measurement": "Clapatinib in BP, single rat", "setting": "lapatinib 100 mg/kg + elacridar, 3 h", "result": 2880, "unit": "ng/mL"},
      {"measurement": "Clapatinib in BP, single rat", "setting": "lapatinib 100 mg/kg + elacridar, 4 h", "result": 1033, "unit": "ng/mL"},
      {"measurement": "Clapatinib in BP, single rat", "setting": "lapatinib 100 mg/kg + elacridar, 6 h", "result": 1310, "unit": "ng/mL"},
      {"measurement": "Clapatinib in BP, single rat", "setting": "lapatinib 100 mg/kg + elacridar, 8 h", "result": 2790, "unit": "ng/mL"},
      {"measurement": "Clapatinib in BP, single rat", "setting": "lapatinib 100 mg/kg + elacridar, 12 h", "result": 2315, "unit": "ng/mL"},
      {"measurement": "Clapatinib in BP, single rat", "setting": "lapatinib 100 mg/kg + elacridar, 24 h", "result": 1170, "unit": "ng/mL"},
      {"measurement": "Clapatinib in BP, single rat", "setting": "lapatinib p.o. 100 mg/kg alone, 0.25 h, 100 mg/kg", "result": 770, "unit": "ng/mL"},
      {"measurement": "Clapatinib in BP, single rat", "setting": "lapatinib p.o. 100 mg/kg alone, 0.5 h, 100 mg/kg", "result": 1445, "unit": "ng/mL"},
      {"measurement": "Clapatinib in BP, single rat", "setting": "lapatinib p.o. 100 mg/kg alone, 1 h, 100 mg/kg", "result": 2265, "unit": "ng/mL"},
      {"measurement": "Clapatinib in BP, single rat", "setting": "lapatinib p.o. 100 mg/kg alone, 2 h, 100 mg/kg", "result": 2465, "unit": "ng/mL"},
      {"measurement": "Clapatinib in BP, single rat", "setting": "lapatinib p.o. 100 mg/kg alone, 3 h, 100 mg/kg", "result": "1530 ng/mL and 3225 ng/mL"},
      {"measurement": "Clapatinib in BP, single rat", "setting": "lapatinib p.o. 100 mg/kg alone, 4 h, 100 mg/kg", "result": 2685, "unit": "ng/mL"},
      {"measurement": "Clapatinib in BP, single rat", "setting": "lapatinib p.o. 100 mg/kg alone, 6 h, 100 mg/kg", "result": 2325, "unit": "ng/mL"},
      {"measurement": "Clapatinib in BP, single rat", "setting": "lapatinib p.o. 100 mg/kg alone, 8 h, 100 mg/kg", "result": 1750, "unit": "ng/mL"},
      {"measurement": "Clapatinib in BP, single rat", "setting": "lapatinib p.o. 100 mg/kg alone, 12 h, 100 mg/kg", "result": "955 ng/mL and 2055 ng/mL"}
    ]}
  ]
}
